{"sequences": {"note": "Sequences of proteins named here, by UniProt entry; tags and fusion partners are left off. Residues count along the entry.", "UniProt Q02127, 31-395 limits assumed": "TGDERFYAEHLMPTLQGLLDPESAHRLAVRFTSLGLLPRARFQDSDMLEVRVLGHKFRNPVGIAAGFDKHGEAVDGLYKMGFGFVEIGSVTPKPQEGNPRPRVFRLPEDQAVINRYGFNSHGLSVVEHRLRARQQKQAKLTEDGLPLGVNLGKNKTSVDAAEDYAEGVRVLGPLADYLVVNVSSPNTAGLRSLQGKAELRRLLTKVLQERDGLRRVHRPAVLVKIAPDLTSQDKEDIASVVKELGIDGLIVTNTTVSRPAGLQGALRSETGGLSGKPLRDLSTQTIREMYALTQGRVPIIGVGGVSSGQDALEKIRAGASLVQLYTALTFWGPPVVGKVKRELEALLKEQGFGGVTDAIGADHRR"}, "source": "patent US12637435B2", "about": "“Nitrogen-containing heterocyclic compound or salt thereof, use thereof, and intermediate thereof” (FUJIFILM Corporation, priority 2020, dated 2026)", "key": {"HL60 subcutaneous tumor": {"test_system": "HL60 subcutaneous tumor", "assay": "In vivo drug efficacy test in cancer-bearing mouse model with subcutaneous transplantation of HL60", "details": "HL60 subcutaneous xenograft, female NOD/scid mice, oral 2.5 to 10 mg/kg once a day for 10 to 12 days", "excerpt": "(Drug Efficacy Test in Cancer-Bearing Mouse Model with Subcutaneous Transplantation of HL60)\nThe human acute myeloid leukemia cell line HL60 (available from JCRB) was suspended in a mixture of RPMI-1640 culture medium and Matrigel (available from Corning Inc.), and then subcutaneously transplanted into 6-week-old female NOD/scid mice (available from CLEA Japan, Inc.). The test compound was dispersed in a solvent (0.5% aqueous methylcellulose solution), and from the time when tumor engraftment was visually confirmed, the test compound was orally administered to mice at a dose of 2.5 to 10 mg/kg once a day for 10 to 12 days. A solvent administration group to which a 0.5% aqueous methylcellulose solution was administered was provided as a negative control. The tumor diameter was measured over time and the tumor volume was calculated. The tumor volume was calculated by measuring the major axis and the minor axis of the tumor and using the following expression. Tumor volume (mm^3)=[major axis (mm)×minor axis (mm)×minor axis (mm)]/2\nT/C (%) was calculated from the average tumor volume of each group by the following expression, and the drug efficacy was evaluated. T/C (%)=(average tumor volume of drug-administered group)/(average tumor volume of solvent-administered group)×100%"}, "recombinant human DHODH": {"target": "recombinant human DHODH (Homo sapiens, UniProt Q02127)", "assay": "DHODH enzyme reaction inhibition test (DCIP-coupled assay)", "details": "read-out: Enzyme reaction inhibitory effect (IC50); recombinant human DHODH 0.175 μg/mL, DCIP absorbance 600 nm, 50 minutes, pH 8.0", "protocol": "The DHODH enzyme assay was carried out with reference to “Benjamin Bader, Wolfgang Knecht, Markus Fries, and Monika Loffler, Expression, Purification, and Characterization of Histidine-Tagged Rat and Human Flavoenzyme Dihydroorotate Dehydrogenase, Protein Expression and Purification, 1998, 13, 414-422.”\nThe DHODH activity was evaluated using an enzyme assay system that is coupled with an assay in which a blue coloring agent 2,6-dichlorophenolindophenol (DCIP, available from MP Biomedicals, LLC, MP150118) is quenched. Purified recombinant human DHODH (DHODH, 31-395aa, Human, His tag, E. coli, ATGP1615) was purchased from ATGen Co. Ltd. The enzyme assay was carried out in a 384-well plate using a buffer solution containing 100 mmol/L Hepes (available from Dojindo Laboratories, 342-01375), 400 mmol/L NaCl (available from FUJIFILM Wako Pure Chemical Corporation, 191-01665), 10% Glycerol (available from FUJIFILM Wako Pure Chemical Corporation, 075-00616), 0.05% Triton X-100 (available from Sigma-Aldrich Co., LLC, T8787-100ML), 0.2 mmol/L Ubiquinone-10 (available from FUJIFILM Wako Pure Chemical Corporation, 216-00761), 0.1 mmol/L DHO (L-dihydroorotic acid, available from Sigma-Aldrich Co., LLC, D7128), 0.5% DMSO (dimethylsulfoxide, available from FUJIFILM Wako Pure Chemical Corporation, 047-29353), 0.175 μg/mL DHODH, and 0.12 mmol/L DCIP and having a pH adjusted to 8.0 by adding 5 mol/L potassium hydroxide (available from FUJIFILM Wako Pure Chemical Corporation, 168-21815). A test compound with a predetermined concentration was added using Biomek NX (available from Beckman Coulter Inc.), and the enzyme reaction was started by adding the substrate. The enzyme activity was assessed by measuring the decrease in DCIP absorbance (600 nm) for 50 minutes using an EnVision plate-reading spectrophotometer (available from PerkinElmer, Inc.).\nThe enzyme reaction inhibition rate at each test compound concentration was determined, and the 50% enzyme reaction inhibition concentration [IC50 (nmol/L)] was calculated using XLfit. Enzyme reaction inhibition rate (%)=(amount of luminescence in test compound-added well)/(amount of luminescence in DMSO-added well)×100\nThe abbreviations in the table have the following meanings. • A: IC50 value<10 nmol/L • B: 10 nmol/L≤IC50 value<100 nmol/L • C: 100 nmol/L≤IC50 value"}, "[1]": {"test_system": "human myeloid leukemia cell line HL60", "assay": "Cell growth test, HL60 (CellTiter-Glo)", "details": "read-out: Cell growth inhibitory effect (GI50); HL60 cells, 3 days, CellTiter-Glo luminescence", "protocol": "The cell growth test was carried out using the human myeloid leukemia cell line HL60 (available from ATCC, CRL-240). As a culture medium of HL60 cells, RPMI 1640 (available from FUJIFILM Wako Pure Chemical Corporation, 189-02025) supplemented with 10% fetal bovine serum (available from Thermo Fisher Scientific, Inc., 10437-028), and 1% penicillin-streptomycin (10,000 U/mL, available from Thermo Fisher Scientific, Inc., 15140-122) was used. HL60 cells were seeded on a 384-well plate (available from Corning Inc., 4588) at a cell density of 1×10^3 cells/20 μL/well. After culturing overnight, 5 μL of the test compound having a predetermined concentration was added, and 3 days later, 25 μL of CellTiter-Glo (registered trademark) Luminescent Cell Viability Assay (available from Promega Corporation, G7573) was added, and then the amount of luminescence was measured using an EnVision plate reader (available from PerkinElmer, Inc.). Since the amount of luminescence is proportional to the intracellular concentration of adenosine triphosphate (ATP), the amount of luminescence was used as an indicator of the number of viable cells. The growth inhibitory concentration for each test compound concentration was calculated by the following expression.\nThe growth inhibition rate at each test compound concentration was determined, and the 50% growth inhibitory concentration [GI50 (nmol/L)] was calculated using XLfit. Growth inhibition rate (%)=(amount of luminescence in test compound-added well)/(amount of luminescence in DMSO-added well)×100\nThe abbreviations in the table have the following meanings. • A: GI50 value<100 nmol/L • B: 100 nmol/L≤GI50 value<1,000 nmol/L • C: 1,000 nmol/L≤GI50 value"}}, "data": [{"smiles": "CS(=O)(=O)NC(=O)c1nc(C2CC2)cnc1Nc1cc(F)cc(C2CCOCC2)c1OC(F)F", "values": [{"measurement": "tumor growth inhibition rate (T/C from tumor volume)", "setting": "HL60 subcutaneous tumor", "value": "excellent tumor growth inhibition rate"}, {"measurement": "IC50", "setting": "recombinant human DHODH", "value": "< 10", "unit": "nM"}, {"measurement": "GI50", "setting": "[1]", "value": "< 100", "unit": "nM"}]}, {"smiles": "CS(=O)(=O)NC(=O)c1nc(C2CC2)cnc1Nc1cc(F)cc(C2=CCOCC2)c1OCC(F)(F)F", "values": [{"measurement": "IC50", "setting": "recombinant human DHODH", "value": "< 10", "unit": "nM"}, {"measurement": "GI50", "setting": "[1]", "value": "< 100", "unit": "nM"}]}, {"smiles": "O=C(O)c1cc(C2CC2)cnc1Nc1cccc(C2CCOCC2)c1OCC(F)(F)F", "values": [{"measurement": "IC50", "setting": "recombinant human DHODH", "value": "< 10", "unit": "nM"}, {"measurement": "GI50", "setting": "[1]", "value": "< 100", "unit": "nM"}]}, {"smiles": "CCCc1c(Nc2ncc(C3CC3)nc2C(=O)NOC)cccc1C1CCOCC1", "values": [{"measurement": "IC50", "setting": "recombinant human DHODH", "value": "< 10", "unit": "nM"}, {"measurement": "GI50", "setting": "[1]", "value": "< 100", "unit": "nM"}]}, {"smiles": "CS(=O)(=O)NC(=O)c1cc(C2CC2)cnc1Nc1cc(F)cc(C2CCOCC2)c1OC(F)F", "values": [{"measurement": "IC50", "setting": "recombinant human DHODH", "value": "< 10", "unit": "nM"}, {"measurement": "GI50", "setting": "[1]", "value": "< 100", "unit": "nM"}]}, {"smiles": "CCCc1c(Nc2ncc(C3CC3)nc2C(=O)NS(C)(=O)=O)cccc1C1CCOCC1", "values": [{"measurement": "IC50", "setting": "recombinant human DHODH", "value": "< 10", "unit": "nM"}, {"measurement": "GI50", "setting": "[1]", "value": "< 100", "unit": "nM"}]}, {"smiles": "C[C@H](Oc1c(Nc2nnc(C3CC3)cc2C(=O)O)cccc1C1CCOCC1)C(F)(F)F", "values": [{"measurement": "IC50", "setting": "recombinant human DHODH", "value": "< 10", "unit": "nM"}, {"measurement": "GI50", "setting": "[1]", "value": "> 1000", "unit": "nM"}]}]}
